Assay outcomes: PubChem BioAssay, National Center for Advancing Translational Sciences (NCATS)
Nrf2 ARE act – activates Nrf2 signaling; AREc32 ARE-luciferase reporter (MCF7-derived line), luminescence, 24 h; 410,000 compounds, 0.31% hits; Potency, µM (titrated, usually from 46.1 µM), inactives show at the highest dose activation, hits mostly activators; note: potency is the fitted concentration of half-maximal effect; % of control where 0% means no effect; nearly all actives have a fitted effect of over 65% in size
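Cells of the AREc32 ARE-luciferase line are plated in OPTI-MEM containing 5% FBS and left overnight at 37 deg C. Compounds are pinned in, incubation continues 24 hr, and firefly luciferase signal is then measured.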
Nrf2 inh – inhibitors of Nrf2 signaling | A549 ARE-Fluc reporter, luciferase luminescence, 18-24 h | Potency, µM (series often up to 46 µM), for inactives: at the highest dose activity change, negative = inhibition, actives largely listed as inhibitors | 360,000 compounds, 2.1% hits | AID 504444; note: potency is the fitted concentration of half-maximal effect; % is set by controls: 0 for no effect and ±100 for the full control effect; nearly all actives have a fitted effect of over 60% in size
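Cells were seeded and rested 2 h, then exposed to compounds for 18-24 h. CellTiter-Fluor was read first as a viability measure. BugLite was added 15 min before the final luminescent read of ARE-luciferase activity in A549 cells.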
p53 reactivator – mutant p53 re-activation in reporter cells; Potency, µM (titrated, usually from 92.2 µM), for the others: at the highest dose activity change, positive = activation, usual class: activators; H1299 p53-A138V BP100-luciferase reporter, luminescence, 24 h; 320,000 compounds, 0.063% hits; note: potency is the fitted concentration of half-maximal effect; % of control where 0% means no effect; nearly all actives have a fitted effect of over 45% in size
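H1299 (p53-null), stable ts p53-A138V + BP100-Luc; 1000 cells/well, Opti-MEM/10% FBS; cpd 4 pt, 1:5; 24 h, 37 deg C, 5% CO2; detection reagent 10 min RT; luminescence.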
ClpP mod – qHTS Assay for Activators of ClpP; purified B. subtilis ClpP, FRET peptide cleavage, 20 min; Potency, µM (titrated, usually from 57.5 µM), for inactives: at the top dose activity change, negative = active; 340,000 compounds, 1.9% hits; AID 651965, 2013; active = well fitted falling curve with a large enough effect; inconclusive = small, poorly fitted or top-dose-only effect; inactive = no such curve, though single readings can be large or run the other way; note: potency is the fitted concentration of half-maximal effect; the source files actives as falling curves though it sought activators and does not explain the sign; nearly all actives have a fitted effect of over 65% in size
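Purified B. subtilis ClpP, 10 microg/mL final in Tris/HCl pH8 with KCl, BSA, glycerol and Tween-20, cleaved an Abz/nitrotyrosine-quenched decapeptide. Fluorescence (ex 320, em 430) was read at 0 and 20 min at room temperature. Delta was normalized to 5.8 microM ADEP and DMSO/no-enzyme controls.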
A549 tox – counter-screen for Nrf2 inhibitors: cytotoxicity in A549 cells | Potency, µM (series often up to 46 µM), without a hit: top-dose activity change, negative = cytotoxicity, hits mostly inhibitors | A549 ARE-Fluc cells, CellTiter-Fluor viability, 18-24 h | 390,000 compounds, 0.16% hits; note: potency is the fitted concentration of half-maximal effect; % is set by controls: 0 for no effect and ±100 for the full control effect
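A549 ARE_Fluc cells in 5% FBS OPTI-MEM were exposed to compounds in concentration-response for 18-24 h at 37 deg C. Viability was read by CellTiter-Fluor fluorescence (Ex 405/Em 525) after 30 min, before the luciferase read.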
miR-21 reporter – raises the signal of a miR-21 reporter; Potency, µM (doses to about 38.3 µM), inactives show top-dose reporter change, positive = more light; HeLa miR-21 FLuc reporter, luciferase, 48 h; AID 2288; 340,000 tested, under 10 active; active = well fitted rising curve with a large enough effect; inconclusive = small, poorly fitted or top-dose-only effect; inactive = no such curve, though single readings can be large or run the other way;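 further: % of control where 0% means no effect; miR-21 action dims this reporter so a rising signal means less miR-21 action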
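Using DMEM plus 10% FBS, HeLa miR-21-FLuc cells are incubated with test compounds (final up to about 40uM) for 48 hours; firefly luciferase signal is then imaged following reagent-mediated lysis.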
The depositor's hits bear a star; ? = inconclusive; / = not tested or not shown. A selection: hits, their analogues and other compounds. The true share with any hit is near 3.7%. Unless noted, calls come from the whole dose curve; as a rule, active = well fitted curve in the direction sought with a large enough effect; inconclusive = small, poorly fitted or top-dose-only effect, or another doubt; inactive = no such curve, though single readings can be large; an effect the other way counts as inactive or inconclusive.

SMILES	Nrf2 ARE act	Nrf2 inh	p53 reactivator	ClpP mod	A549 tox	miR-21 reporter
COc1ccc(-c2ccc(C3C4C=CCC(C)C4C(=O)N3Cc3ccccc3)c(F)c2)cc1C (stereo not given)	/	-22%	/	/	11%	/
COC(=O)c1ccc(-c2ccc(C3C4C=CCC(C)C4C(=O)N3Cc3ccccc3)c(F)c2)cc1 (stereo not given)	/	10µM*	/	/	-13%	/
COc1ccc(-c2ccc([C@H]3[C@H]4C=CC[C@@H](C)[C@@H]4C(=O)N3Cc3ccccc3)c(F)c2)cc1C	0%	-3%	-5%	25µM*	-4%	-1%
CC(=O)c1ccc(-c2cc([C@H]3[C@H]4C=CC[C@@H](C)[C@@H]4C(=O)N3Cc3ccccc3)ccc2F)cc1	3%	21µM*	1%	-3%	-13%	22%
CC(=O)c1ccc(-c2cc(C3C4C=CCC(C)C4C(=O)N3Cc3ccccc3)ccc2F)cc1 (stereo not given)	/	?	/	/	-13%	/
CCOc1ccccc1NC(=O)C1=C(C)Nc2ncnn2C1c1sccc1C (stereo not given)	0%	/	/	0%	-16%	11%
CC[N+](C)(C)c1ccc(/C=C/c2ccncc2)cc1	/	/	/	0%	/	/
Cn1c(=O)c2cc(S(=O)(=O)NCCC(=O)N3CC=C(c4ccccc4)CC3)ccc2n(C)c1=O	0%	15µM*	-5%	-3%	-6%	10%
CN(CC(=O)N1CC=C(c2ccccc2)CC1)S(=O)(=O)c1ccc2c(c1)c(=O)n(C)c(=O)n2C	5%	1%	-3%	-28%	12%	1%
Cc1cc(C)c2nc(N3CCCC(C(=O)NCc4cccc(Cl)c4)C3)sc2c1 (stereo not given)	4%	?	/	-3%	1%	5%
CCC(C)Nc1nc(-c2cccc(OC)c2O)nc2ccccc12 (stereo not given)	-2%	21µM*	6%	0%	?	-7%
N#Cc1ccsc1NC(=O)CSc1ncnc2ccccc12	13µM*	?	?	-4%	8%	-20%
O=C(CSc1ncnc2ccccc12)NCc1ccco1	8%	-3%	8%	-4%	-1%	-4%
O=C(CSc1ncnc2ccccc12)c1ccco1	2.8µM*	24%	28%	-18%	-15%	-27%
Cc1nn(C)c2c1c(C(F)(F)F)cc(=O)n2C(C)C(=O)NCCC(C)C (stereo not given)	0%	-16%	/	4%	5%	0%
O=C(C(=O)N1CCN(c2ccccc2)CC1)c1ccco1	/	/	/	1%	/	/
Cn1c(=O)c2c(nc(SCC(=O)Nc3ccc(F)cc3F)n2Cc2ccccc2)n(C)c1=O	0%	24%	/	-2%	9%	-1%
COc1ccc(CCNC(=O)CCc2c(C)c3ccc(O)c(C)c3oc2=O)cc1	4%	4%	/	4%	15%	-9%
CC(C)NC(=O)C1(C)CSCC(=O)N1Cc1cccc(C(F)(F)F)c1 (stereo not given)	/	/	/	0%	/	/
COc1ccc(C(O)c2nc(/C=C/c3ccc(C(F)(F)F)cc3)cs2)cc1 (stereo not given)	1%	/	/	25µM*	/	/

Some of these compounds in order of length of the SMILES, largest number first:
SMILES	Nrf2 ARE act	Nrf2 inh	p53 reactivator	ClpP mod	A549 tox	miR-21 reporter
CC(=O)c1ccc(-c2cc(C3C4C=CCC(C)C4C(=O)N3Cc3ccccc3)ccc2F)cc1 (stereo not given)	/	?	/	/	-13%	/
COc1ccc(-c2ccc(C3C4C=CCC(C)C4C(=O)N3Cc3ccccc3)c(F)c2)cc1C (stereo not given)	/	-22%	/	/	11%	/
COc1ccc(C(O)c2nc(/C=C/c3ccc(C(F)(F)F)cc3)cs2)cc1 (stereo not given)	1%	/	/	25µM*	/	/

Compounds listed so far with a furan ring, fused or not (three):
SMILES	Nrf2 ARE act	Nrf2 inh	p53 reactivator	ClpP mod	A549 tox	miR-21 reporter
O=C(CSc1ncnc2ccccc12)NCc1ccco1	8%	-3%	8%	-4%	-1%	-4%
O=C(CSc1ncnc2ccccc12)c1ccco1	2.8µM*	24%	28%	-18%	-15%	-27%
O=C(C(=O)N1CCN(c2ccccc2)CC1)c1ccco1	/	/	/	1%	/	/

(next part)
SMILES	Nrf2 ARE act	Nrf2 inh	p53 reactivator	ClpP mod	A549 tox	miR-21 reporter
CC1=C(C(=O)Nc2ccccc2C)C(c2cccnc2)n2nc(SCc3ccccc3)nc2N1 (stereo not given)	0%	/	/	1%	-8%	-1%
Cc1ccc(-c2nc(P(=O)(c3ccccc3)c3ccccc3)c(N3CCOCC3)o2)cc1	0%	-14%	0%	-10%	-17%	19%
CNc1oc(-c2ccc(Cl)cc2)nc1P(=O)(c1ccccc1)c1ccccc1	1%	?	-2%	28µM*	?	-1%
c1cc(CNc2ccc3c(c2)OCCO3)ccn1	5%	/	25µM*	4%	-3%	-29%
Cc1ccc2cc3c(N)nn(C(=O)c4cccc(F)c4)c3nc2c1	-1%	16%	/	2%	-9%	-4%
O=C(Nc1nc2ccccc2n1CCN1CCOCC1)c1ccc(COc2ccccc2Br)o1	3%	13µM*	-3%	/	-16%	-6%
COc1ccccc1OCc1ccc(C(=O)Nc2ccccc2)cc1	-1%	6%	?	1%	-4%	/
O=C(Nc1ccc(Cn2cccn2)cc1)c1ccc(COc2ccccc2Br)cc1	1%	9.2µM*	8%	?	?	6%
O=C(NCc1cccnc1)c1ccc(COc2ccccc2Br)o1	3%	-4%	-10%	0%	-1%	18%
O=C(Nc1cccnc1)c1ccc(COc2ccccc2Br)o1	0%	6.5µM*	-23%	1%	-13%	6%
CCN1CCN(c2ncc3c(n2)CCN(Cc2sccc2C)C3)CC1	-1%	/	/	-9%	-7%	21%
CCC(Oc1ccccc1-c1nnc(-c2ccccc2)o1)C(=O)Nc1ccc(C(C)=O)cc1 (stereo not given)	7%	-44%	/	2%	1%	-5%
CN(C(=O)CSc1nc2ccc(NC(=O)COc3ccccc3Cl)cc2s1)c1ccccc1	-1%	-11%	/	-1%	0%	-12%
CSc1nnc(-c2sc(-c3ccccc3)nc2C)n1C	5%	9%	8%	25µM*	8%	-25%
COc1ccccc1CNc1nc(NC(C)C)nc2cc(-c3ccccc3)sc12	-1%	/	/	?	/	/
CC(C)Nc1nc(NCCOc2ccccc2Cl)c2sc(-c3ccccc3)cc2n1	0%	/	/	25µM*	/	/
c1ccc(-c2nc(-c3ccco3)cs2)nc1	13µM*	?	21%	-28%	1%	-53%
c1ccc(-c2noc(-c3ccco3)n2)nc1	22%	?	22µM*	0%	-5%	-6%
Cc1ccc(-c2nc(-c3ccccn3)no2)cc1	-2%	2.1µM*	-38%	-2%	-1%	?
c1ccc(-c2nc(-c3ccccn3)no2)cc1	?	?	-7%	-1%	-15%	?
c1ccc(-c2ccc(-c3nc(-c4ccccn4)no3)cc2)cc1	-2%	?	-13%	25µM*	-6%	?
Cc1ccc(-c2nc(-c3ccccn3)no2)cc1Cl	-1%	?	-13%	-2%	5%	?
COc1cccc(-c2nc(-c3ccccn3)no2)c1OC	0%	?	?	-2%	1%	-44%
c1ccc(-c2noc(-c3cccc4ccccc34)n2)nc1	?	74%	/	40µM*	-7%	2%
COCCNc1nc(N)c([N+](=O)[O-])c(NCC2CCCO2)n1 (stereo not given)	0%	0%	0%	25µM*	0%	-8%
